ChEMBL document CHEMBL1126412, “RP 70676: A potent systematically available inhibitor of acyl-CoA:cholesterol O-acyl transferase (ACAT)” (Bioorg Med Chem Lett, 1992)

What was measured:
[1] = molecular target: T1, Acyl-CoA:cholesterol acyltransferase (Oryctolagus cuniculus, UniProt Q95214); assay: Concentration required for the inhibition of Cholesterol O-acyl transferase from cholesterol fed rabbit adrenal
T1 sequence (Q95214 whole entry): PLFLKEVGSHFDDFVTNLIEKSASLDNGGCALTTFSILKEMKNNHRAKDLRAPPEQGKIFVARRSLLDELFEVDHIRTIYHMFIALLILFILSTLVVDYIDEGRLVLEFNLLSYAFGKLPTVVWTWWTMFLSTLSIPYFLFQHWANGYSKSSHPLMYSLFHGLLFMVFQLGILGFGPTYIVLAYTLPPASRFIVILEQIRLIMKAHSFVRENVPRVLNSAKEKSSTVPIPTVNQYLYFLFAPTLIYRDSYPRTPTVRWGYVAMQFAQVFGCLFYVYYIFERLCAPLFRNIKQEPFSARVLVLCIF

[2] = molecular target: T1, Acyl-CoA:cholesterol acyltransferase; assay: Concentration required for the inhibition of cholesterol O-acyl transferase (ACAT) from cholesterol fed rabbit liver
[3] = molecular target: T1, Acyl-CoA:cholesterol acyltransferase; assay: Concentration required for the inhibition of Cholesterol O-acyl transferase from cholesterol fed rabbit gut
[4] = molecular target: T1, Acyl-CoA:cholesterol acyltransferase; assay: Concentration required for the inhibition of Cholesterol O-acyl transferase from cholesterol fed rabbit artery; assay type: tissue-based
[5] = molecular target: T1, Acyl-CoA:cholesterol acyltransferase; assay: Concentration required for the inhibition of rabbit arterial Acyl coenzyme A:cholesterol acyltransferase

Cc1cc(C)n(CCCCCSc2nc(-c3ccccc3)c(-c3ccccc3)[nH]2)n1
IC50 [1]: 79 nM | IC50 [2]: 44 nM | IC50 [3]: 119 nM | IC50 [4]: 40 nM | IC50 [5]: 40 nM
